Data as given in ChEMBL document CHEMBL5726830, “Compounds and their use as BACE inhibitors” (2018).
pIC50: −log10 of the molar value.

The chains behind the UniProt entries cited, without tags or fusion partners. Where a name states a change or a piece, a line headed by the entry shows the natural chain unless it says otherwise.
UniProt P56817: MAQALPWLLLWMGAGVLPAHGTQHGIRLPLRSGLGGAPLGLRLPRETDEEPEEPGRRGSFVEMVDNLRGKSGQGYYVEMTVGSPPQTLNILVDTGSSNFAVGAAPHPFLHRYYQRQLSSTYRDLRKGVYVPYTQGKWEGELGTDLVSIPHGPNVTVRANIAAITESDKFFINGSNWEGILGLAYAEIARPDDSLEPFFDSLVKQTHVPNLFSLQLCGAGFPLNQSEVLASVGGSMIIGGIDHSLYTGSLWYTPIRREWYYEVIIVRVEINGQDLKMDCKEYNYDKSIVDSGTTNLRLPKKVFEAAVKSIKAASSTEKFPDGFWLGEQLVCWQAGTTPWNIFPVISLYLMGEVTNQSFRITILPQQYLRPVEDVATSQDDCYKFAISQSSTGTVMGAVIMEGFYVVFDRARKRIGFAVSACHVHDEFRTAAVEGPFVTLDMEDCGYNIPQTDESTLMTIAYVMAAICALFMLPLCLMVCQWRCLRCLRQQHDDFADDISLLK

Target: Beta-secretase 1 (Homo sapiens, UniProt P56817)
Test: FRET Assay: The enzyme (truncated form) was diluted to 6 μg/mL (stock 1.3 mg/mL) and the substrate (Europium)[…](Qsy7) to 200 nM (stock 120 μM) in reaction buffer (NaAcetate, chaps, triton x-100, EDTA pH4.5). The robotic systems Biomek FX and Velocity 11 were used for all liquid handling and the enzyme and substrate solutions were kept on ice until they were placed in the robotic system. Enzyme (9 μl) was added to the plate then 1 μl of compound in dimethylsulphoxide was added, mixed and pre-incubated for 10 minutes. Substrate (10 μl) was then added, mixed and the reaction proceeded for 15 minutes at r.t. The reaction was stopped with the addition of Stop solution (7 μl, NaAcetate, pH 9). The fluorescence of the product was measured on a Victor II plate reader with an excitation wavelength of 340 nm and an emission wavelength of 615 nm. The assay was performed in a Costar 384 well round bottom, low volume, non-binding surface plate (Corning #3676). […] The dimethylsulphoxide control, instead of test compound, defined the 100% activity level and 0% activity was defined by wells lacking enzyme (replaced with reaction buffer).

| pIC50 | SMILES |
| --- | --- |
| 9.20 | CO[C@H]1CC[C@]2(CC1)Cc1ccc(-c3cc(Cl)cc(C#N)c3)cc1C21N=C(C)C(N)=N1 (some centres not stated) |
| 8.96 | CO[C@H]1CC[C@]2(CC1)Cc1ccc(-c3cncc(Cl)c3)cc1C21N=C(C)C(N)=N1 (some centres not stated) |
